Molecules are shown by their SMILES. “Also recorded” adds a separate entry of the source.

By UniProt entry, the sequences of proteins in these tests, tags left out. Where a name states a change or a piece, a line headed by the entry shows the natural chain unless it says otherwise.
UniProt P35561: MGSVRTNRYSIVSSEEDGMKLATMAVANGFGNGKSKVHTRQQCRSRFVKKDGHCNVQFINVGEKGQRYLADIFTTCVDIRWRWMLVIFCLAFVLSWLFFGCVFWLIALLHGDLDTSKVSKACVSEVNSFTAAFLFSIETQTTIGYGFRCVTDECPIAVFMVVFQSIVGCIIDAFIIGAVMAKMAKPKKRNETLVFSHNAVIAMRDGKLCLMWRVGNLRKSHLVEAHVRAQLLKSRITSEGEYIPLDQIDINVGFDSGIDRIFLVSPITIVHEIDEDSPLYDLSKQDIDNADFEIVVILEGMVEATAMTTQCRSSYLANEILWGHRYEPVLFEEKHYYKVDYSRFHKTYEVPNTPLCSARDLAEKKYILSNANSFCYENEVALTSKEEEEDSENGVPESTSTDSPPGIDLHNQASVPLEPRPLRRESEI

Type in all cases: cell-based
The target of test [1] is T1, GIRK1/4 channel (Rattus norvegicus, UniProt P48548+P63251).
T1 construct: expressed in transfected cells; host or cells: Xenopus laevis oocytes (cRNA injection)
T1 sequence (P63251 1-501): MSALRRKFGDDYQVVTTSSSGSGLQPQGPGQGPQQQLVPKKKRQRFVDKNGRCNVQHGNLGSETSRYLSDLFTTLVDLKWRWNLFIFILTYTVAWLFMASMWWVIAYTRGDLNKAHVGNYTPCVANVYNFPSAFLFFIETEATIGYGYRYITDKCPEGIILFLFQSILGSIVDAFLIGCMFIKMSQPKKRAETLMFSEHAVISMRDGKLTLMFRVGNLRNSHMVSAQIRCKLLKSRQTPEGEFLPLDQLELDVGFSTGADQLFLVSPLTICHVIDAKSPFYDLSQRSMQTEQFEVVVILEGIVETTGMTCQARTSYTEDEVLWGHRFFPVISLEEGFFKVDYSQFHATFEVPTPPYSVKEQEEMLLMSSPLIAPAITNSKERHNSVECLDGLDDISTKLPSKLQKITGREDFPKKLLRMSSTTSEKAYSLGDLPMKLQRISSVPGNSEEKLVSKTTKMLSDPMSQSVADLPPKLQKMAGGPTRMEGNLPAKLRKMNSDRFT
T1 sequence (P48548 1-419): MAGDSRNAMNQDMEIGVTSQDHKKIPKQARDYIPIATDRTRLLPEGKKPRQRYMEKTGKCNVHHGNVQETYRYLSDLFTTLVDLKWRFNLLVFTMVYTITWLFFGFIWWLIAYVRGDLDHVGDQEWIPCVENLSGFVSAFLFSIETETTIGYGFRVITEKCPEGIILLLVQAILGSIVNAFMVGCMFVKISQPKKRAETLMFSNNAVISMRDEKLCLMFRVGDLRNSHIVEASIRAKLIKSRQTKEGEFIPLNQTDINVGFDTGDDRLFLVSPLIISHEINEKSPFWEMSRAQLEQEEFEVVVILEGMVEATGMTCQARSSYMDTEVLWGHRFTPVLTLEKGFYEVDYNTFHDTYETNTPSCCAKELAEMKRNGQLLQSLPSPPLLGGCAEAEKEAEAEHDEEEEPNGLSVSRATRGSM
The test can be described thus: cell-based.

Test [2] concerns the target T2, ROMK1 channel (Rattus norvegicus, UniProt P35560).
T2 construct: expressed in transfected cells; host or cells: Xenopus laevis oocytes (cRNA injection)
T2 sequence (P35560 1-391): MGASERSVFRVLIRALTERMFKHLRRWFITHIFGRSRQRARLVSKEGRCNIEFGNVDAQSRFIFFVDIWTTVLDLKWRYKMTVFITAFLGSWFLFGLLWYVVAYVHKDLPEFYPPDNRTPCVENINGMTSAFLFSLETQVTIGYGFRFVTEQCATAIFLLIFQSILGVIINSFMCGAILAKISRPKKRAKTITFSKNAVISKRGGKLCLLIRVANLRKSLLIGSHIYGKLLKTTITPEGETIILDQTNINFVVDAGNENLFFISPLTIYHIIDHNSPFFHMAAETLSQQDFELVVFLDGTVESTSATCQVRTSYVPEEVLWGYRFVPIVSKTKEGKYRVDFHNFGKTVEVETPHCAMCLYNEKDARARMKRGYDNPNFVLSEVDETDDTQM
In words: Two-electrode voltage clamp of wild-type ROMK1 channel in Xenopus oocytes. The protocol:
(§1) Oocytes harvested from Xenopus laevis frogs were digested with collagenase (2 mg/mL) in a solution containing: NaCl, 82.5 mM; KCl, 2.5 mM; MgCl2, 1.0 mM; HEPES, 5.0 mM (pH 7.6) and were agitated on a platform shaker at a rate of 80 rpm for 90 minutes. The oocytes were then rinsed thoroughly with and stored in a solution containing: gentamicin, 50 μg/mL; NaCl, 96 mM; KCl, 2 mM; CaCl2, 1.8 mM; MgCl, 1 mM; HEPES, 5 mM (pH 7.6). Defolliculated oocytes were selected at least 2 hours after the collagenase digestion. To express channels, the corresponding cRNA was directly injected into oocytes. To express the GIRK1/4 channel, GIRK1 and GIRK4 cRNAs were co-injected with either M2 or M4 receptor cRNA. All injections were carried out at least 16 hours after the collagenase treatment. The injected oocytes were stored in an 18° C. incubator.
All three inward-rectifier K^+ channels, GIRK1/4, ROMK1, and IRK1, were studied using a two-electrode voltage clamp amplifier (Oocyte Clamp OC-725C, Warner Instruments Corp.). The resistance of electrodes filled with 3 M KCl were 0.2–0.4 M Ω. To elicit current through the channel, the membrane potential of oocytes was stepped to −80 mV (100–125 ms) and then to +80 mV (100–125 ms) from the holding potential of 0 mV. Background leak currents were obtained by exposing oocytes to solutions containing tertiapin at concentrations greater than 100 fold of Kd. […] The bath solution contained KCl, 100 mM; CaCl, 0.3 mM; MgCl2, 1.0 mM; and HEPES, 10 mM (pH 7.6). To activate the GIRK1/4 channel, ACh (150 μM) was included in the bath solution. Tertiapin concentration was calculated using an extinction coefficient 6.1 mM^−1 cm^−1 at 280 nm wavelength. All toxin-containing solutions were freshly made by diluting stock solutions. Unless specified otherwise, tertiapin used in all experiments were made synthetically as described in Example 6. All other toxins were either recombinant toxins or purchased from Alomone Labs (Jerusalem, Israel). […]
For orientation: Two-electrode voltage clamp is typically applied to oocytes expressing channels or transporters.

The target in test [3] is T3, IRK1 channel (Mus musculus, UniProt P35561).
T3 construct: expressed in transfected cells; host or cells: Xenopus laevis oocytes (cRNA injection)
The test can be described thus: Two-electrode voltage clamp of IRK1 channel in Xenopus oocytes. As for the experimental part:
as §1
All three inward-rectifier K^+ channels, GIRK1/4, ROMK1, and IRK1, were studied using a two-electrode voltage clamp amplifier (Oocyte Clamp OC-725C, Warner Instruments Corp.). The resistance of electrodes filled with 3 M KCl were 0.2–0.4 M Ω. To elicit current through the channel, the membrane potential of oocytes was stepped to −80 mV (100–125 ms) and then to +80 mV (100–125 ms) from the holding potential of 0 mV. […] Tertiapin concentration was calculated using an extinction coefficient 6.1 mM^−1 cm^−1 at 280 nm wavelength. […]

[4] abbreviates: tertiapin and TPNQ at similar concentrations.

Take `CC[C@H](C)[C@@H]1NC(=O)[C@H](CCCNC(=N)N)NC(=O)[C@H](CC(N)=O)NC(=O)[C@@H]2CSSC[C@@H](C(=O)NCC(=O)N[C@@H](CCCCN)C(=O)N[C@@H](CCCCN)C(N)=O)NC(=O)[C@H](CCCCN)NC(=O)[C@H](CCCCN)NC(=O)[C@H](Cc3c[nH]c4ccccc34)NC(=O)[C@H](CSSC[C@H](NC(=O)[C@H](CC(C)C)NC(=O)[C@H](C)N)C(=O)N[C@@H](CC(N)=O)C(=O)N2)NC(=O)[C@H](CCSC)NC(=O)[C@H](Cc2c[nH]cn2)NC(=O)[C@@H]2CCCN2C(=O)[C@H]([C@@H](C)CC)NC(=O)[C@H]([C@@H](C)CC)NC1=O` [tertiapin]: in test [1], the “effect on / sensitivity of the GIRK1/4 channel, in words” value is listed as “highly sensitive”. Also, in test [1] (setting [4]), the “fraction of current through the GIRK1/4 channel inhibited” value is given as “about half”. For the same compound, in test [2] (relative to Lq2), the “affinity for the ROMK1 channel, fold higher than Lq2” value stood at 200 fold. In addition, in test [2] (setting [4]), the “fraction of current through the ROMK1 channel inhibited” value is recorded as “about half”. The “sensitivity / affinity of the ROMK1 channel, in words” value in test [2] (wild-type ROMK1) is “highly sensitive; also recorded: very sensitive”. The “sensitivity of the IRK1 channel, in words” value in test [3] is recorded as “relatively insensitive”. Also, the “sensitivity of the IRK1 channel” value in test [3] (at a concentration of 2 μM) was “insensitive”.
